# Test results published in patent US20080293081A1, “Fluorescence Polarization Assays for Acetyltransferase/Deacetylase Activity” (Sirtris Pharmaceuticals, Inc., priority 2005, published 2008).
# Sequences of proteins named here, by UniProt entry; tags and fusion partners are left off. A change or cut given only in a name is not applied to a line headed by its entry.
# UniProt Q9NTG7: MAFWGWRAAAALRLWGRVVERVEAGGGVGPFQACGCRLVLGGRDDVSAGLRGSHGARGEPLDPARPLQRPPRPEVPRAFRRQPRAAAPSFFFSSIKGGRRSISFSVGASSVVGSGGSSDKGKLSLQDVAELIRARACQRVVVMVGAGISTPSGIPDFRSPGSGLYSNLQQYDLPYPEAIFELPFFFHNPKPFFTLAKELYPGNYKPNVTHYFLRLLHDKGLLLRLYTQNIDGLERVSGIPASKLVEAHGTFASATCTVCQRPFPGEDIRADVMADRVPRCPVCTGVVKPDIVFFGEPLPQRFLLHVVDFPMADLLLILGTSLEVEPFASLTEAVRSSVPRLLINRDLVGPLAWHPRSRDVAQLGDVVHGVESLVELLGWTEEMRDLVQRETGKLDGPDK
# UniProt Q8IXJ6: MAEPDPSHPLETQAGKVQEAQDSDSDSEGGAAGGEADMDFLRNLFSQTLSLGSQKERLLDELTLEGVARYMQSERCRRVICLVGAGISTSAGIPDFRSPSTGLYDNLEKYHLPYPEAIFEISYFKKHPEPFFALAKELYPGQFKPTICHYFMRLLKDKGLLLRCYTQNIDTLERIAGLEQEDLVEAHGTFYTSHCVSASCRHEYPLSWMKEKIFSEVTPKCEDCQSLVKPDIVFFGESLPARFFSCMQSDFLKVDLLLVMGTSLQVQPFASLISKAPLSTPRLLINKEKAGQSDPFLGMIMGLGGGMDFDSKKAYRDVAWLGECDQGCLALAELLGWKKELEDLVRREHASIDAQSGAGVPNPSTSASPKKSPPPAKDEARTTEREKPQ
# Read-outs that look alike come from different tables or passages of the source.
# How the values were obtained:
# SIRT3 = SIRT3 (Homo sapiens, UniProt Q9NTG7); experiment: Fluorescence polarization assay, SIRT3 deacetylation of Histone H4-based peptide substrate; type: biochemical; settings: read-out: NAD Km; Km of NAD with the named peptide substrate; Sirt3, fluorescent polarization, present invention
# Text: A fluorescence polarization assay was used to identify modulators of SIRT3 activity. The same assay may be used to identify modulators of any sirtuin protein. The assay utilizes a peptide substrate based on a fragment of Histone H4, a known sirtuin deacetylation target. The substrate contains a peptide having 14 amino acid residues as follows: Biotin-GASSHSK(Ac)VLK(MR121) (SEQ ID NO: 23) wherein K(Ac) is an acetylated lysine residue. The peptide is labeled with the fluorophore MR121 (excitation 635 nm/emission 680 nm) at the C-terminus and biotin at the N-terminus.
# The peptide substrate is exposed to a sirtuin protein in the presence of NAD^+ to allow deacetylation of the substrate and render it sensitive to cleavage by trypsin. […] The fluorescence polarization signal observed for the full length peptide substrate bound to streptavidin is higher than the fluorescence polarization signal observed for the released MR121 C-terminal fragment. Therefore, the fluorescence polarization obtained is inversely proportional to the level of deacetylation (e.g., the signal is inversely proportional to the activity of the sirtuin protein). Results are read on a microplate fluorescence polarization reader (Molecular Devices Spectramax MD) with appropriate excitation and emission filters. […]
# SIRT2 = SIRT2 (Homo sapiens, UniProt Q8IXJ6); experiment: Fluorescence polarization assay, SIRT2 deacetylation of alpha-tubulin-based peptide substrate; settings: Sirt2, fluorescent polarization, present invention
substance,measurement,setting,value
Biotin-GASSHS-K(Ac)-VL-K(MR121)-NH2,Km,SIRT3,50 µM
Biotin-Nle-PSD-K(Ac)-TIGG-K(MR121)-NH2,Km,"SIRT2; read-out: NAD Km, Km of NAD with the named peptide substrate",37 µM
same,Km,SIRT2; read-out: Peptide Km,50 µM
